Assay results from US20200243166A1.

Chains of the proteins cited; added tags and fusions are not shown.
UniProt P00519, whole entry: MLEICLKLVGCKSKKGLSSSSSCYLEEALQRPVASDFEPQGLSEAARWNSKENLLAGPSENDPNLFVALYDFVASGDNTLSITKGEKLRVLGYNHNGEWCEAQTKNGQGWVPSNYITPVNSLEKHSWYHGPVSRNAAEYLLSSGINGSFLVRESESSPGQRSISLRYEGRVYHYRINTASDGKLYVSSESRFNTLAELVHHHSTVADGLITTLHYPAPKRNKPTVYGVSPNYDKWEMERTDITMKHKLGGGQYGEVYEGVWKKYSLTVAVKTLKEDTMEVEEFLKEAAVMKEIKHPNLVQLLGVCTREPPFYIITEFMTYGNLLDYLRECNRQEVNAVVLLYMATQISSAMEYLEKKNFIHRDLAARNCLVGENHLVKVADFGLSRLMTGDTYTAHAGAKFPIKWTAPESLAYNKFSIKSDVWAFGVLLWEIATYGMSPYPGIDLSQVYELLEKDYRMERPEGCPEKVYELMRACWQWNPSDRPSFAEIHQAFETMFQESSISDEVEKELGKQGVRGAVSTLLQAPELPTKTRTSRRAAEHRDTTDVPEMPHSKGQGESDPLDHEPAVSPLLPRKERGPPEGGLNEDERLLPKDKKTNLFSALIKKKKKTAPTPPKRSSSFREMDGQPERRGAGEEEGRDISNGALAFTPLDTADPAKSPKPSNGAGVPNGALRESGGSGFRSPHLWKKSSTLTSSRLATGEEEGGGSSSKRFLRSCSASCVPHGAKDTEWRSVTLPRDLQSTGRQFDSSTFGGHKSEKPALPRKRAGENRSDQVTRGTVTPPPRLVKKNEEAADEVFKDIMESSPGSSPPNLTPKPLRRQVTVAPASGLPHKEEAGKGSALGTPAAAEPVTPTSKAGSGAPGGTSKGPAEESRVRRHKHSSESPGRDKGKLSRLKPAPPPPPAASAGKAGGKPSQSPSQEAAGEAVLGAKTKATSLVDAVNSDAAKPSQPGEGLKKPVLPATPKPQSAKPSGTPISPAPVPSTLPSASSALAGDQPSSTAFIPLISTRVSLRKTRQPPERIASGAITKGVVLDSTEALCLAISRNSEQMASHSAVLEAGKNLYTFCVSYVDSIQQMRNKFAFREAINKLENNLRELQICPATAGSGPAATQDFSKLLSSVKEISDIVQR

Molecular target: protein ABL1 (Homo sapiens, UniProt P00519)
Assay: binding force / activity against protein ABL1 (IC50)
Details: read-out: binding force, IC50 (50% inhibitory concentration); ligand for protein ABL1 (kinase)
Experimental: The binding force of this ligand is at a level of 1 μM with an IC50 (50% inhibitory concentration). […] In a case where the activity of this compound is actually measured, the activity is at the same level as that of the ligand. That is, FIGS. 11A and 11B are an example showing that compounds having similar invariant AAM descriptors have similar drug efficacies. As described above, according to the first embodiment, a feature quantity (invariant AAM descriptor) accurately showing the chemical properties of the target structure can be obtained.

## COc1ccccc1Oc1ccc2n[nH]c(-c3nc4ccc(N5CCC(N6CCCCC6)CC5)cc4[nH]3)c2c1
  IC50: 1 µM
